Literature values as cited in US20240189234A1, “SILICON PARTICLES FOR DRUG DELIVERY” (NACAMED AS, priority 2021, published 2024).
Some compounds may have been tested in ways that are not shown here.

Settings: calculated log P values from Foye's Principles of Medicinal Chemistry

| Structure (SMILES) | log P |
| --- | --- |
| CCC(=O)N(c1ccccc1)C1CCN(CCc2ccccc2)CC1 | 3.68 |
| CCC(=O)N(c1ccccc1)C1(COC)CCN(CCc2cccs2)CC1 | 3.95 |
